According to patent publication US20160378909A1, “PROCESS FOR IDENTIFYING CULTURE CONDITIONS FOR A CELL OR ORGANISM” (GLAXOSMITHKLINE BIOLOGICALS SA, priority 2013, published 2016):
Read-outs that look alike come from different tables or passages of the source.

Test system: Bordetella pertussis
Assay: microbe, parasite or virus in culture
Assay type: cell-based
Experimental: Cells were harvested by centrifugation, washed twice with NaCl 0.9% (w/v), and resuspended in fresh medium (de novo minimal CDM; see composition in Table 1) at a theoretical OD650 nm of 0.5, as calculated from the OD650 nm of the culture before harvest. 20 μl of this cell suspension were used to inoculate each well of a 96-well microtiter plate filled with 180 μl of de novo minimal CDM. Only the inner wells of the plate were used for cultures, in order to minimize evaporation, and two controls were included, in which the supplement solution was replaced with water.
The plate was then incubated for 7 days at 35° C. in a Biotek Synergy H1 reader with constant shaking, and growth was automatically monitored every 10 minutes as OD650 nm.
The relative growth yield and growth rate for each supplement was then averaged over the three independent repeats, and the standard deviation was calculated.

O=C([O-])CCC(=O)C(=O)[O-].[Na+].[Na+] [Disodium 2-ketoglutarate]
activity at 2000 µM (168 h, read-out: Relative yield Average, 2 mM in medium, max OD650 nm relative to water controls): > 105%
activity at 2000 µM (read-out: Relative growth rate Average, 2 mM in medium, first generation, relative to water controls): 95 to 105%
activity at 20000 µM (read-out: Relative growth rate Average, 20 mM in medium, first generation, relative to water controls): 95 to 105%
